Values quoted from earlier work in patent US20220151944A1, “FLUOROURACIL-CONTAINING FORMULATIONS” (SISAF LIMITED, priority 2019, published 2022).

Conditions: 25° C.

For orthosilicic acid, the pKa1 is given as 9.84 and the pKa2 is given as 13.2.
